Experimental data reported in patent publication US20230138177A1 (priority 2020, published 2023).

By UniProt entry, the sequences of proteins in these tests, tags left out.
UniProt Q9Y463, whole entry: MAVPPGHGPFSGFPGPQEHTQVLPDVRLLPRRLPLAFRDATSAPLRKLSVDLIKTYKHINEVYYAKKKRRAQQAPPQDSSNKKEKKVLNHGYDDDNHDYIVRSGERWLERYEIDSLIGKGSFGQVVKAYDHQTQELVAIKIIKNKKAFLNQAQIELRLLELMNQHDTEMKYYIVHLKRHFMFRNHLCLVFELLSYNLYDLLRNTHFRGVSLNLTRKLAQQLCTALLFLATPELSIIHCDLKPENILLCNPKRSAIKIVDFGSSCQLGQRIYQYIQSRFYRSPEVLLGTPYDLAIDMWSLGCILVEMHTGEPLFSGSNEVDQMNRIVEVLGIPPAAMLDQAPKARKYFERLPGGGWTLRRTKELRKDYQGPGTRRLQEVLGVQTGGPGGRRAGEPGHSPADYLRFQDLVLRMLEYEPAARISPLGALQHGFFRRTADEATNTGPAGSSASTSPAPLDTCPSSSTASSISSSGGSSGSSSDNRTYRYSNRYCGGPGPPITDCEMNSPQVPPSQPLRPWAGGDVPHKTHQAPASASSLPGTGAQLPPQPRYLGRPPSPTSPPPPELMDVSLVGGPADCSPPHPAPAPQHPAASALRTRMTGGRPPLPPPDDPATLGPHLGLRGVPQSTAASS

What was measured:
[1] = biological target: T1, DYRK1B (Homo sapiens, UniProt Q9Y463); format: cell-based; set-up: expressed in transfected cells; host or cells: glioma cells (U87); conditions: glioma cells expressing wild type DYRK1B; harmine 10 μM, CX-4945 1 μM for 8 hours; DMOG 1 mM, CoCl2 150 μM for 12 hours
[2] = biological target: T1, DYRK1B; format: biochemical; set-up: expressed in transfected cells; host or cells: HEK293T or U87 cells; immunoprecipitate used in vitro; conditions: FLAG-DYRK1B from cells treated with harmine 10 μM or CX-4945 1 μM for 8 hours

prolyl hydroxylation of DYRK1B [1]: failed to perturb | tyrosine autophosphorylation of DYRK1B [1]: severely impairing | phosphorylation of the ID2-T27 substrate [2]: severely impairing
SMILES: O=C(O)c1ccc2c(c1)nc(Nc1cccc(Cl)c1)c1ccncc12 [CX-4945]
